Our source for the inhibition values is PubChem BioAssay AID720543 (The Scripps Research Institute Molecular Screening Center, 2013).

Amino acid sequences for entries named in this document (tags omitted).
UniProt Q8VD66, whole entry: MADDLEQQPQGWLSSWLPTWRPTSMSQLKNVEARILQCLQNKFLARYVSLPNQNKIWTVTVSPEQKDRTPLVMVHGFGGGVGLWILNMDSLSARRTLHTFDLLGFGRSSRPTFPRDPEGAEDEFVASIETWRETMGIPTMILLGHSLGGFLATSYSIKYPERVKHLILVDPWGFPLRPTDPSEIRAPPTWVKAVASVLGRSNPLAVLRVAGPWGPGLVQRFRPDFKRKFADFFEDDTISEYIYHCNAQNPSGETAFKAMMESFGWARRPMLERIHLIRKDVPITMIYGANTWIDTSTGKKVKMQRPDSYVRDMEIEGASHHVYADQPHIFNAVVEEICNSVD

Molecules are shown by their SMILES. The entries are a selection whose mix differs from that of the whole data set. Calls of active or inactive are those of the source.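 The calls were made as follows: active = inhibition exceeding the mean over every tested compound plus 3 SD (cut at about 30% in these data); inactive = the rest.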

As usually defined, the inhibition is the change of the read-out against control, counted positive when it falls.

In this experiment the target is (Lyso)-N-acylphosphatidylethanolamine lipase (Mus musculus) (UniProt Q8VD66). Kind of experiment: ABHD4 inhibitors, primary screen, biochemical, fluorescence polarization, mouse (AID 720543).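 Also: 0% = plate median of compound wells and 100% = S159A mutant with DMSO.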 The note with it: purified mABHD4, FP-Rh probe fluorescence polarization; at 8.92 µM; active compounds read high. In outline:
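assay system = mABHD4 protein | compound dosing = single nominal dose of 8.92 µM, 0.89% DMSO final | read-out basis = percent inhibition of probe binding, normalized to plate controls | schedule = Enzyme–compound pre-incubation 45 min, then probe 60 min, both 25 °C | detection = fluorescence polarization, excitation 525 nm, emission 598 nm, BODIPY TMR filters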
For orientation: Fluorescence polarisation rises when a labelled molecule tumbles more slowly, as on binding a larger partner.
As to `O=[N+]([O-])c1cc([N+](=O)[O-])c(C(F)(F)F)c([N+](=O)[O-])c1O`, the inhibition was inactive: -65.4%.
As for `Cc1ccccc1NP(C)(=O)Nc1ccccc1C`, the figure is inactive: 3.23%; as for `CP(=O)(Nc1ccc2c(c1)OCCO2)Oc1ccccc1` (stereo not given), inactive: 3.18%.
On to `CCOP(=O)(CC)OCC`, for which the inhibition is inactive: -0.97%.
As to `CCOP(C)(=S)SCC(=O)NC(C)(CC)C(=O)O` (stereo not given), the inhibition was inactive: 9.08%.
As for `CP(=O)(Nc1ccc(SC(F)(F)F)cc1)Oc1ccc(F)cc1` (stereo not given), the figure is inactive: -5.02%.
As for `Cc1nc2ccc3ccccc3c2s1.O=[N+]([O-])c1cc([N+](=O)[O-])c(O)c([N+](=O)[O-])c1`, the figure is inactive: -12.5%; as for `O=[N+]([O-])c1cc([N+](=O)[O-])c(-c2cnn(-c3ccccc3)c2)c([N+](=O)[O-])c1`, inactive: -2.26%.
As for `CN(Cc1cccnc1)C(=O)COc1ccc(Cl)c(Cl)c1.O=[N+]([O-])c1cc([N+](=O)[O-])c(O)c([N+](=O)[O-])c1`, the figure is inactive: -6.84%; as for `O=[N+]([O-])c1cc([N+](=O)[O-])c(-n2nnc3ccccc32)c([N+](=O)[O-])c1`, inactive: 0.55%.
Consider `CP(=O)(Nc1ccc(SC(F)(F)F)cc1)Oc1ccccc1` (stereo not given), for which the inhibition is inactive: -1.3%.
Take `CCCOc1ccc(NP(C)(=O)Oc2ccc(Cl)cc2)cc1` (stereo not given): the inhibition is inactive: -2.61%.
In the case of `COc1ccc(-c2ccccn2)cc1.O=[N+]([O-])c1cc([N+](=O)[O-])c(O)c([N+](=O)[O-])c1` it was inactive: -1.13%; in that of `CN1CCCCC1COC(=O)C1(O)c2ccccc2CCc2ccccc21` (stereo not given), inactive: -1.53%.
`COc1ccccc1OP(C)(=O)Nc1c(C)cccc1C` (stereo not given): the inhibition was inactive: -8.6%.
On to `CCOC(=O)C(CC)C1=NC(C)(C)Cc2ccccc21.O=[N+]([O-])c1cc([N+](=O)[O-])c(O)c([N+](=O)[O-])c1` (stereo not given), for which the inhibition is inactive: -1.68%.
Take `O=[N+]([O-])c1cc([N+](=O)[O-])c(Nc2nnnn2CCO)c([N+](=O)[O-])c1`: the inhibition is inactive: 9.14%.
As for `CC1=NCCc2c1[nH]c1ccccc21.O=[N+]([O-])c1cc([N+](=O)[O-])c(O)c([N+](=O)[O-])c1`, the figure is inactive: 2.64%.
As for `O=C(O)c1cccc(Nc2c([N+](=O)[O-])cc([N+](=O)[O-])cc2[N+](=O)[O-])c1`, the figure is inactive: 1.82%; as for `CP(=O)(Nc1cccc(Br)c1)Oc1ccccc1` (stereo not given), inactive: -2.27%; as for `Cc1cc(C)cc(OP(C)(=O)Nc2ccccn2)c1` (stereo not given), inactive: -7.81%.
`Cc1ccc(C)c(NP(C)(=O)Oc2ccccc2)c1` (stereo not given): the inhibition was inactive: 0.32%.
In the case of `Cc1cc(C)cc(OP(C)(=O)Nc2ccc(C)cc2C)c1` (stereo not given) it was inactive: -1.02%; in that of `CCOC(=O)c1ccc(NP(C)(=O)Oc2cc(C)cc(C)c2)cc1` (stereo not given), inactive: -4.08%.
As for `COc1ccccc1OP(C)(=O)Nc1cccc(Br)c1` (stereo not given), the figure is inactive: 2.49%; as for `COc1ccccc1-c1ccccn1.O=[N+]([O-])c1cc([N+](=O)[O-])c(O)c([N+](=O)[O-])c1`, inactive: -2.7%.
In the case of `CCN(CC)CCCOC(=O)C(O)(c1ccccc1)c1ccccc1` it was inactive: -5.47%; in that of `COc1ccc(OP(C)(=O)Nc2cccc(F)c2)cc1` (stereo not given), inactive: -2.8%; in that of `COc1ccccc1OP(C)(=O)Nc1cc(Cl)ccc1C` (stereo not given), inactive: 2.91%.
With `Cc1cc(C)cc(OP(C)(N)=O)c1` (stereo not given), the inhibition is inactive: 0.08%.
Regarding `CCOC(=O)c1ccc(NP(C)(=O)Oc2ccccc2)cc1` (stereo not given), the inhibition is inactive: 1.1%.
As for `Cc1ccc(NP(C)(=O)Oc2ccccc2)c(C)c1` (stereo not given), the figure is inactive: 7.29%.
Consider `COc1ccccc1OP(C)(=O)Nc1ccc(C)cc1` (stereo not given), for which the inhibition was inactive: -11.9%.
In the case of `Cc1cccc(C)c1OP(C)(N)=O` (stereo not given), the inhibition is inactive: -4.74%.
In the case of `CC(C)(C)c1ccc(OP(C)(=O)Nc2ccc(SC(F)(F)F)cc2)cc1` (stereo not given) it was inactive: 0.74%; in that of `O=[N+]([O-])c1ccc2c(c1)C=Nc1ccccc1O2`, inactive: -1.38%.
As for `O=[N+]([O-])c1cc([N+](=O)[O-])c(Nc2cccnc2)c([N+](=O)[O-])c1`, the figure is inactive: 10.7%; as for `COc1ccccc1OP(C)(=O)Nc1ccccc1` (stereo not given), inactive: -2.63%; as for `CP(=O)(Nc1ccccc1Br)Oc1ccccc1` (stereo not given), inactive: 0.97%.
In the case of `CP(=S)(Nn1cnnc1)Oc1ccccc1` (stereo not given), the inhibition was inactive: 6.36%.
Take `CP(=O)(Nc1ccccn1)Oc1ccc(Cl)cc1` (stereo not given): the inhibition was inactive: 7.55%.
In the case of `CCOP(C)(=S)SCC(=O)NC(C)C(=O)O` (stereo not given), the inhibition was inactive: -0.42%.
`O=[N+]([O-])c1cc([N+](=O)[O-])c(O)c([N+](=O)[O-])c1.c1ccc(Oc2ccncc2)cc1`: the inhibition was inactive: -1.11%.
Regarding `CCOC(=O)c1ccc(NP(C)(=O)Oc2ccc(OC)cc2)cc1` (stereo not given), the inhibition was inactive: -8.56%.
`Cc1cc(C)cc(OP(C)(=O)Nc2ccc(SC(F)(F)F)cc2)c1` (stereo not given): the inhibition was inactive: 9.67%.
As for `CCc1ccc(OP(C)(=O)N2CCN(c3ccc([N+](=O)[O-])cc3)CC2)cc1` (stereo not given), the figure is inactive: 1.05%; as for `CP(=O)(NC(=O)Nc1ccccc1)Oc1ccccc1` (stereo not given), inactive: 0.51%.
As for `CP(=O)(Oc1ccccc1)OC(c1ccccc1)C(F)(F)F` (stereo not given), the figure is inactive: 1.51%; as for `CP(=O)(Nc1ccc(SC(F)(F)F)cc1)Oc1ccc(Cl)cc1` (stereo not given), inactive: -15.6%.
On to `Cc1cccc(C)c1OP(C)(=O)Nc1ccc(SC(F)(F)F)cc1` (stereo not given), for which the inhibition was inactive: 8.42%.
